Measured values taken from patent publication US20170029366A1, “INHIBITORS OF HISTONE LYSINE SPECIFIC DEMETHYLASE (LSD1) AND HISTONE DEACETYLASES (HDACS)” (THE JOHNS HOPKINS UNIVERSITY, priority 2014, published 2017).

Chains of the proteins cited; added tags and fusions are not shown.
UniProt P21397, whole entry: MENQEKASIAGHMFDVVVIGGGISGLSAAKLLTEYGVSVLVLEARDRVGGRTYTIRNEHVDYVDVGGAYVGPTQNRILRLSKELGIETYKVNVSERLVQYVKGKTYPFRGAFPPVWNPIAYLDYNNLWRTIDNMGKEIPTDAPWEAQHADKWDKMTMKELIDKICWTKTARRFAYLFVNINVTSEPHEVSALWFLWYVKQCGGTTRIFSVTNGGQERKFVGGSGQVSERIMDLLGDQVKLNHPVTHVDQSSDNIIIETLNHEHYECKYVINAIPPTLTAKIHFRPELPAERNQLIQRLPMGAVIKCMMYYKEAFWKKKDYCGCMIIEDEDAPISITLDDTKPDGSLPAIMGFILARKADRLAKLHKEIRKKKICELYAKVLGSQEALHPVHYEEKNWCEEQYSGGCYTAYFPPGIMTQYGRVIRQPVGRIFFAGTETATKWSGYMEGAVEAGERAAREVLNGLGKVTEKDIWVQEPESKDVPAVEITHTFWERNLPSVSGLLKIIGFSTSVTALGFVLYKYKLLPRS
UniProt P27338, whole entry: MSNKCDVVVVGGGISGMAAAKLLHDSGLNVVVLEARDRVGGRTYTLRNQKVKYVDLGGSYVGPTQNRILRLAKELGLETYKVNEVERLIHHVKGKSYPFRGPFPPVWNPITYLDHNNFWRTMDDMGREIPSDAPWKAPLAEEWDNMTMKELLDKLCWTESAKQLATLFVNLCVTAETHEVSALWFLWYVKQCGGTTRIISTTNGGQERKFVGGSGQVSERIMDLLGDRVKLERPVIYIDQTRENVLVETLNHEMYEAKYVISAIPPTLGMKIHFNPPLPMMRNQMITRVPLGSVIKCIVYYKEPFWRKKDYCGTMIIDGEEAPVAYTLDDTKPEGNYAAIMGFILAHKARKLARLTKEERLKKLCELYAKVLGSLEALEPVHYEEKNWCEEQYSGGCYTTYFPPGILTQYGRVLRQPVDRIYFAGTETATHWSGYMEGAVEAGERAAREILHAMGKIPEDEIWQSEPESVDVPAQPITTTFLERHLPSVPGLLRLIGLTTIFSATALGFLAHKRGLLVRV

How the values were obtained:
H3K4Me2 in LNCaP cells = assay: Western blot of histone H3 marks in LNCaP cells; assay type: cell-based; details: 48 h
GST-LSD1 [1] = molecular target: T1, GST-LSD1 (Homo sapiens, UniProt O60341)
GST-LSD1 [2] = molecular target: T1, GST-LSD1; details: as reported previously (Blair 2011); cited from earlier work
MAO-A = molecular target: T2, MAO-A (Homo sapiens, UniProt P21397); assay: MAO-A activity and inhibition assay (peroxidase-coupled, tyramine); assay type: biochemical
T2 construct: purchased Sigma M 7316
Protocol: (§1) MAO-A was purchased from Sigma (product number: M 7316). MAO-B was purchased from Sigma (product number: M 7441). MAO-A/B activity was measured spectrophotometrically using a peroxidase-coupled assay as previously described. Forneris, F., et al. (2005). 100 μL reactions were initiated by the addition of 2 μL of MAO-A/B (to obtain 100-200 nM final concentration for MAO-A and 0.837 M final concentration for MAO-B) to reaction mixtures consisting of 50 mM HEPES buffer (pH 7.5), 0.1 mM 4-aminoantipyrine, 1 mM 3,5-dichloro-2-hydroxybenzenesulfonic acid, 0.04 mg/mL horseradish peroxidase (Worthington Biochemical Corporation), and appropriate concentration of buffered substrate (tyramine). Absorbance changes were measured at 515 nm using a Beckman Instruments DU series 600 spectrophotometer equipped with a thermostatted cell holder (T=25° C.), and product formation was calculated using the extinction coefficient of 26,000 M^−1.
(§2) […]. Reactions were run at similar conditions as previously stated with 125 µM tyramine substrate for MAO-A and with 125-1,000 M tyramine substrate for MAO-B. Progress curves were then fit accordingly to eqs 1-3 as previously stated. Each experiment was repeated at least two independent times and repeat measured values were typically within 20% of each other.

GST-LSD1 [3] = molecular target: T1, GST-LSD1; assay: MassSQUIRM LSD1 inhibition assay; assay type: biochemical; design: made in house; host or cells: E. coli; details: 50 μM inhibitor, 215 nM GST-LSD1, 30 min, 25° C.
MAO-B = molecular target: T3, MAO-B (Homo sapiens, UniProt P27338); assay: MAO-B activity and inhibition assay (peroxidase-coupled, tyramine); assay type: biochemical
T3 construct: purchased Sigma M 7441
Protocol: as §1, §2

LNCaP cells = assay: [3H] thymidine incorporation assay in LNCaP cells; assay type: cell-based; details: 48 h, 80 μM

Cl.Cl.NNCCc1ccc(NC(=O)CCCc2ccccc2)cc1 [Compound 12d, N-[4-(2-Hydrazinylethyl)phenyl]-4-phenylbutanamide dihydrochloride]
H3K4Me2 band density (H3K4Me2 in LNCaP cells; 3 μM and 10 μM, 3 biological replicates): Statistically significant increases
changes in H3K4Me1, H3K4Me3, unmethylated H3K4, H3K9Me2, H3K9Ac, H3K36Me3 (H3K4Me2 in LNCaP cells; 0.4-10 μM): no significant reproducible changes
effect on LSD1 protein levels (H3K4Me2 in LNCaP cells; 0.4-10 μM): no discernible effect

NNCCc1ccc(NC(=O)CCCc2c[nH]c3ccccc23)cc1.O=S(=O)(O)O [Compound 15b, N-[4-(2-Hydrazinylethyl)phenyl]-4-(1H-indol-3-yl)butanamide sulfate]
k(inact) (GST-LSD1 [1]; GST-LSD1, peroxidase-coupled assay): 0.17 ± 0.019 min⁻¹

NNCCc1ccccc1 [phenelzine]
concentration needed to extinguish LSD1 activity under MassSQUIRM conditions (GST-LSD1 [2]): greater than 10 mM
k(inact) (MAO-A; MAO-A): 0.24 ± 0.057 min⁻¹
k(inact)/Ki(inact) (MAO-A; MAO-A): 4830 ± 3000 M⁻¹ s⁻¹
selective for inhibiting LSD1 versus MAO A (MAO-A; based on k(inact)/Ki(inact)): preferentially inhibits MAO A
LSD1 inhibition in MassSQUIRM assay (in words) (GST-LSD1 [3]): negligible impact on LSD1 inhibition
k(inact)/Ki(inact) (GST-LSD1 [1]; GST-LSD1 inactivation efficiency): 1050 ± 300 M⁻¹ s⁻¹
weaker LSD1 inhibitor than bizine (GST-LSD1 [1]; phenelzine relative to bizine): approximately 100 fold
k(inact) (MAO-B; MAO-B): 0.20 ± 0.040 min⁻¹
k(inact)/Ki(inact) (MAO-B; MAO-B): 850 ± 417 M⁻¹ s⁻¹
selective for inhibiting LSD1 versus MAO B (MAO-B; based on k(inact)/Ki(inact)): equipotent in blocking MAO B compared with LSD1
reduction in 3H-thymidine incorporation (LNCaP cells): < 50%
